In ChEMBL document CHEMBL5223177, “Pyrazole Ureas as Low Dose, CNS Penetrant Glucosylceramide Synthase Inhibitors for the Treatment of Parkinson's Disease” (ACS Med Chem Lett, 2023) one finds IC50 data, which are given here for one compound.

The target in assay [1] is T1, Ceramide glucosyltransferase (Homo sapiens, UniProt Q16739).
T1 sequence (Q16739 whole entry): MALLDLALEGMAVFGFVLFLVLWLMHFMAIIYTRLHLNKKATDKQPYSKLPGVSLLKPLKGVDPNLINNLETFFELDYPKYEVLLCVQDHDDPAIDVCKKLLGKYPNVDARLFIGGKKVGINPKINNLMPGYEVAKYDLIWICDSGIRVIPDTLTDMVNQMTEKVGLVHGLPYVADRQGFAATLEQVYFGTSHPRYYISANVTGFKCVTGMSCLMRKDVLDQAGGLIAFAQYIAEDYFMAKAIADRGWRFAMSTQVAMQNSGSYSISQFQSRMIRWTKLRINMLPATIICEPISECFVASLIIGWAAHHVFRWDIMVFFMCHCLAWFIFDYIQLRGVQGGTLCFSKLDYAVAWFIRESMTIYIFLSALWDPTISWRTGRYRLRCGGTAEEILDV
In words: Inhibition of GCS in human fibroblast. It counts as cell-based.

Assay [2] concerns the target T1, Ceramide glucosyltransferase. In words: Inhibition of Glucosylceramide synthase (unknown origin) using C6-ceramide and UDP-glucose as substrate preincubated for 30 mins followed by substrate addition and measured after 2 hrs by UDP-Glo luminometer analysis.

pIC50: −log10 of the molar value.

One may read the pIC50 as the negative decadic logarithm of the IC50, by convention in mol/L. Low readings indicate a large IC50, high ones a small IC50. For the compound `CC(C)(NC(=O)O[C@@H]1CN2CCC1CC2)c1csc(-c2ccc(F)cc2)n1`, the pIC50 in assay [1] is 7.92; in assay [2], 7.36.
